Laboratory results: ChEMBL document CHEMBL5360537, “From lead to clinic: A review of the structural design of P2X7R antagonists” (Eur J Med Chem, 2023)

Target: T1, P2X purinoceptor 7 (Rattus norvegicus, UniProt Q64663)
T1 sequence (Q64663 whole entry): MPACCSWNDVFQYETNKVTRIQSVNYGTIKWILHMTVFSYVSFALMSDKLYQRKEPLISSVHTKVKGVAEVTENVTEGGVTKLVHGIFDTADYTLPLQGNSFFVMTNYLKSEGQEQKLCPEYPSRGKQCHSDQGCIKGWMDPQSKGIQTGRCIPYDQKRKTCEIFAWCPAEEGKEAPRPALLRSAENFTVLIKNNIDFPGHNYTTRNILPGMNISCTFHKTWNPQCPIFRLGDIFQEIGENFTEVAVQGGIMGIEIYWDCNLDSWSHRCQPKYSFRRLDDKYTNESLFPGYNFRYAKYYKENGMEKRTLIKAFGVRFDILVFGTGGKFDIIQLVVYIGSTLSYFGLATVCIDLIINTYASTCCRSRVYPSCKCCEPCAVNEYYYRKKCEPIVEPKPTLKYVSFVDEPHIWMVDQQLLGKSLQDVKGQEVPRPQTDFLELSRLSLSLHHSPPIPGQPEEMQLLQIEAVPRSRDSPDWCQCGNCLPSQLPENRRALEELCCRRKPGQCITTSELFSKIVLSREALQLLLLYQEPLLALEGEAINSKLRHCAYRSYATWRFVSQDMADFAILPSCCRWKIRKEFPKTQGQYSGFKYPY
Assay: Inhibition of recombinant rat P2X7 receptor by FLIPR assay

O=C(c1cccc(C(F)(F)F)c1Cl)N1[C@H]2CC[C@@H]1c1nnc(-c3ncc(F)cn3)n1C2
IC50: 3.98 µM
